Test: Bioavailability / systemic FP plasma concentration after oral nebulization of the liquid composition containing FP
Format: in vivo, human
Settings: after the last administration (day 8)
Procedure: The liquid compositions containing FP, object of the present invention, have been tested in a clinical study to evaluate the local and systemic tolerability after repeated dosages and to determine the kinetic profiles indicating the levels of systemic absorption. The solutions have been administered to 26 healthy volunteers, among whom 16 were males and 10 females, aged between 18 and 55.
The healthy volunteers received the pharmaceutical composition prepared according to Example 1 in two 200 μl nebulizations three times a day, for a seven-day period, then a single administration on the eighth day. […]
After the end of the treatment, the FP concentration has been determined for further 24 hours corresponding to hour 1, 2, 3, 4, 6, 8, 10, 12, 16 and 24 after the last administration. […]
The plasma concentration was determined for each patient before the first dose and, successively, in the morning of the days 1, 4, 6, 7 and 8 and after 1, 2, 3, 4, 6, 8, 10, 12, 16 and 24 hours since the last treatment. […]
The concentration of FP contained in plasma is represented by the average of the values obtained by the analysis carried out with the method validated in HPLC by using a reversed phase column Hypersil C8 having a size 150×4.6 mm, with 5 μm particles. […] The following parameters were determined: […]
AUC: area subtended to the concentration-time curve calculated by means of the linear trapezoidal rule. […]

removal time (T1/2): 4.47 ± 1.7 h
FP half-life (T1/2) (unit not given): 4.47
Substance: 2-(2-fluoro-4-phenyl-phenyl) propionic acid [FP]

Source: US20120238630A1, “COMPOSITIONS COMPRISING NONSTEROIDAL ANTI - INFLAMMATORY DRUGS” (Alfa Wassermann S.P.A., priority 2009, published 2012)
